Test results reported in publication PMC1995760.

Biological target: T1, NF-κB subunit p65 fused to mKO (donor copy) or mCherry (acceptor copy), Q04206
T1 chain: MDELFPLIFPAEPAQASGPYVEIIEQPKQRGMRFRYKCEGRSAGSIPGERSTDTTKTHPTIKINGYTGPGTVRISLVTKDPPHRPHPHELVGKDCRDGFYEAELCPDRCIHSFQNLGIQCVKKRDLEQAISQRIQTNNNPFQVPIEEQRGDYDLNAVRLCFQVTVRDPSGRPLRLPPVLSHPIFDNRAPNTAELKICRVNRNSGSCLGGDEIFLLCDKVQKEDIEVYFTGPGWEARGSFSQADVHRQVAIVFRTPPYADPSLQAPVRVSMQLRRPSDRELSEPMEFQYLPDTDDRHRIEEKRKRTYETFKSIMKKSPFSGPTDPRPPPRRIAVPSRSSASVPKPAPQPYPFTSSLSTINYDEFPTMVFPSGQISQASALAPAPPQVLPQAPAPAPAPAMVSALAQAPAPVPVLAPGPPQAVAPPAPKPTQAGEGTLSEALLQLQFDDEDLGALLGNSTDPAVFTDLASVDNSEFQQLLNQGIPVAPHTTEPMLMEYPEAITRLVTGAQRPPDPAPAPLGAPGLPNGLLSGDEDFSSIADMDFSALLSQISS
Assay: FRET or BRET; frequency-domain FLIM of the donor in single living HeLa cells; mKO-p65 donor and mCherry-p65 acceptor, equal amounts of plasmid; control: cells with mKO-p65 only; room temperature
Conditions: remark: other sources report otherwise

FRET efficiency based on the phase lifetime: 10%
B1: NF-κB subunit p65 fused to mKO (donor copy) or mCherry (acceptor copy), Q04206 1-551 (natural protein)
chain: T1 chain
